The text below walks through data of paper PMC8284666, “Biochemical characterization of protease activity of Nsp3 from SARS-CoV-2 and its inhibition by nanobodies” (PLoS ONE, 2021).

Where only a bound is given, the exact number is not on record here.

One test addresses PLpro from SARS-CoV-2 (Severe acute respiratory syndrome coronavirus 2, UniProt P0DTC1). Kind of test: biochemical. The conditions noted are these: read-out: percentage inhibition in the HTS.
The next test deals with PLpro (Severe acute respiratory syndrome coronavirus 2, UniProt P0DTC1). Particulars: result in words.

On to `Nc1nc2nc[nH]c2c(=S)[nH]1` [Thioguanine], for which, on PLpro from SARS-CoV-2, the inhibition at 10 µM was above 50%. In addition, the “inhibition of PLpro in the orthogonal gel-based assay” value at PLpro is recorded as “could not observe inhibition”.

One may read the inhibition as the drop in the measured response relative to a control, in per cent.
